Yeast mating assay B: variants of the scFv Ab-14

All variants were tested on one target, the spike HR2 peptide PDVDLGDISGINAS (SARS-CoV-2).

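The parent was found by panning a naive human phage display library on the peptide. These sequences belong to a second round, designed from the earlier measurements on random variants of the parent. Their group label is 14H_En_HC (En: ensemble of fine-tuned language models; HC: hill climbing; a sequence that several methods proposed may carry one label only). Affinity was read by AlphaSeq, a pooled yeast mating assay with surface-displayed partners. After mating in shaken culture at 30 °C for 16 h, diploids were selected and their barcode pairs sequenced. Scores were corrected for input abundance and mapped to Kd with protein pairs of known affinity run in the same pool. Each pool was mated in six replicate cultures.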

Parent scFv Ab-14: VH joined to VL by three GGGGS repeats. Changes lie in the heavy chain CDRs alone.
VH: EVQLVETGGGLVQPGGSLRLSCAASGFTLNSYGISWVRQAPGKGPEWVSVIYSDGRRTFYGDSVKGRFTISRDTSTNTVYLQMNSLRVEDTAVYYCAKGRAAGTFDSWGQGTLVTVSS
VL: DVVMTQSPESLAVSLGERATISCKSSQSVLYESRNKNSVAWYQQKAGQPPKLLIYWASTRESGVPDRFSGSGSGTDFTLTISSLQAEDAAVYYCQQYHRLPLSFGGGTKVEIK

The whole VH of each variant is written out. The read-out is the apparent dissociation constant on a log10 scale (nM): the lower, the stronger. Averages over replicates are reported, and they cover detected replicates only. "nd" means that the variant was in the library but no mating with the target was seen in that replicate; the authors take this as a sign of poor binding, and no number exists. The range of this assay differs from that of the first round, and the authors advise against merging the two.

VH,"replicates, log10 nM","mean, log10 nM",signal with controls
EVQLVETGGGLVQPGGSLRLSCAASGFDLDEYGISWVRQAPGKGPEWVSVIYADGMRTFYADSVKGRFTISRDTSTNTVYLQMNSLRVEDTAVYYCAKGNIAGTFNSWGQGTLVTVSS,-0.14 / -0.32 / -0.26 / -0.52 / -0.52 / -0.08,-0.31,0/18
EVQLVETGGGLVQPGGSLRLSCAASGFDLNEYGISWVRQAPGKGPEWVSVIYADGRRTFYTDSVKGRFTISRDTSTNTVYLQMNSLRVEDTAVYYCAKGEHAGIFDIWGQGTLVTVSS,0.63 / 0.57 / 1.01 / 0.66 / 1.15 / 0.64,0.78,0/18
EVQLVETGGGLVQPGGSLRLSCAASGFDLNEYGISWVRQAPGKGPEWVSVIYADGQRTAYADSVKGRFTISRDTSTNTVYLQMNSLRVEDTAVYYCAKGKTAGTFDSWGQGTLVTVSS,-0.75 / -0.66 / 0.17 / -1.02 / -1.24 / -0.21,-0.62,0/18
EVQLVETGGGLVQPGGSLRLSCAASGFDLNEYGISWVRQAPGKGPEWVSVIYADGRRTFYVDSVKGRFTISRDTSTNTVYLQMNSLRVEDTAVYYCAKGQVAGTFDVWGQGTLVTVSS,-0.30 / -0.39 / -0.63 / -0.62 / -0.22 / -0.56,-0.45,2/18 (3.33)
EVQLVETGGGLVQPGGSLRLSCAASGFDLNEYGISWVRQAPGKGPEWVSVIYADGSRTFYADSVKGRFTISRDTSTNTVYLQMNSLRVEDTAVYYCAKGEAAGTFDQWGQGTLVTVSS,0.42 / 0.79 / 0.43 / 0.66 / 0.44 / 1.00,0.62,0/18
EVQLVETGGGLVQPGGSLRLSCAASGFDLNEYGISWVRQAPGKGPEWVSVIYADGQRTSYADSVKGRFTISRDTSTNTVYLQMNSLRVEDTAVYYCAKGQNAGTFDQWGQGTLVTVSS,0.55 / 0.29 / 0.63 / 0.51 / 0.21 / 0.90,0.51,3/18 (2.12)
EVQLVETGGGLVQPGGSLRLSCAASGFDLNEYGISWVRQAPGKGPEWVSVIYADGRRTFYADSVKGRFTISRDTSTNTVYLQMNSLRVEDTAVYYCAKGNNAGTFVSWGQGTLVTVSS,0.66 / 0.86 / nd / 0.61 / 0.86 / 1.62,0.92,0/18
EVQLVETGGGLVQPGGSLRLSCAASGFNLNEYGISWVRQAPGKGPEWVSVIYADGRRTFYADSVKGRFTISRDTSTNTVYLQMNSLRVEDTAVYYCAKGEIAGTFIMWGQGTLVTVSS,0.22 / -0.12 / 0.37 / 0.56 / 0.11 / 0.51,0.28,0/18
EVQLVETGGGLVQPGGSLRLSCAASGFNLNEYGISWVRQAPGKGPEWVSVIYADGRRTFYADSVKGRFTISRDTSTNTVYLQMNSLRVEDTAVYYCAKGEIAGTFDKWGQGTLVTVSS,-0.60 / -0.81 / -0.55 / -1.21 / -0.85 / -0.70,-0.79,0/18
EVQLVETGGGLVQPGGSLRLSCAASGFDLNEYGISWVRQAPGKGPEWVSVIYADGMRTFYKDSVKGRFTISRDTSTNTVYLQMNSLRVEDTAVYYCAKGEAAGTFDQWGQGTLVTVSS,-0.10 / -0.55 / nd / -1.28 / -0.88 / -0.36,-0.63,0/18
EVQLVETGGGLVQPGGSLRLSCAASGFNLDEYGISWVRQAPGKGPEWVSVIYADGRRTFYADSVKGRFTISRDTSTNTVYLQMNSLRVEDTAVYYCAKGQVAGTFLQWGQGTLVTVSS,-0.50 / -0.80 / -0.49 / -1.04 / -0.02 / -0.82,-0.61,0/18
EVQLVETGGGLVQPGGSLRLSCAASGFDLNEYGISWVRQAPGKGPEWVSVIYADGRRTAYADSVKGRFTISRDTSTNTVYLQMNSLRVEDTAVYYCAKGKNAGTILVWGQGTLVTVSS,nd / nd / nd / nd / nd / nd,nd,0/18
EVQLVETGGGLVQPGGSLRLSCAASGFDLNEYGISWVRQAPGKGPEWVSVIYADGRRTFYADSVKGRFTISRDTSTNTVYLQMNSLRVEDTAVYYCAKGKNAGTFDMWGQGTLVTVSS,1.95 / 0.81 / 0.98 / 1.19 / 1.84 / 2.68,1.57,0/18
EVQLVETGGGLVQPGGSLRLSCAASGFDLNEYGISWVRQAPGKGPEWVSVIYADGMRTFYADSVKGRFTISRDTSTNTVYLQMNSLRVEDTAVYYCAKGELAGTFDVWGQGTLVTVSS,-0.15 / -0.11 / 0.06 / 0.49 / -0.41 / 0.18,0.01,0/18
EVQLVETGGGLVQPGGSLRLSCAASGFDLNEYGISWVRQAPGKGPEWVSVIYADGRRTFYADSVKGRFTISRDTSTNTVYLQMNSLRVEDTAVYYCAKGGNAGTFDQWGQGTLVTVSS,-0.66 / -0.29 / -0.92 / -0.83 / -0.57 / -0.46,-0.62,1/18 (4.03)
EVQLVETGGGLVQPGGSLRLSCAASGFDLNEYGISWVRQAPGKGPEWVSVIYADGRRTFYSDSVKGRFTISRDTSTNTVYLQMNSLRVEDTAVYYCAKGQLAGTFDVWGQGTLVTVSS,-0.39 / -0.50 / -0.35 / -0.82 / -0.87 / -0.83,-0.63,0/18
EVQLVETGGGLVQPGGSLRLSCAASGFNLNEYGISWVRQAPGKGPEWVSVIYADGRRTFYADSVKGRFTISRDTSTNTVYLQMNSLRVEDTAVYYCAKGKQAGTFDMWGQGTLVTVSS,-0.14 / -0.47 / -0.56 / -0.63 / 0.40 / -0.60,-0.33,0/18
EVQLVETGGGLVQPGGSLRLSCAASGFDLESYGISWVRQAPGKGPEWVSVIYADGQRTFYADKVKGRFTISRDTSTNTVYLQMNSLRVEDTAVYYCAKGENAGTFDIWGQGTLVTVSS,0.11 / -0.49 / -1.08 / -0.35 / -0.81 / -0.04,-0.44,0/18
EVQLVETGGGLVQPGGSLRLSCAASGFDLNEYGISWVRQAPGKGPEWVSVIYADGRRTFYADSVKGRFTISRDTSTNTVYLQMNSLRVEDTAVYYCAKGNIAGTFFSWGQGTLVTVSS,0.26 / 0.52 / 0.57 / 0.62 / 0.13 / 0.28,0.40,0/18
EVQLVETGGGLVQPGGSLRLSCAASGFDLNEYGISWVRQAPGKGPEWVSVIYADGSRTVYSDSVKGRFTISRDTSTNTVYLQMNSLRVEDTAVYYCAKGNQAGTFDSWGQGTLVTVSS,0.01 / 0.04 / 0.19 / 0.62 / 0.96 / 0.18,0.33,0/18
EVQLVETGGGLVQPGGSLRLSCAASGFDINEYGISWVRQAPGKGPEWVSVIYADGMRTFYADSVKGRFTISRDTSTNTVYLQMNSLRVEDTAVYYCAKGNQAGTFDLWGQGTLVTVSS,1.43 / -0.86 / 0.91 / -0.45 / 0.76 / 0.30,0.35,0/18
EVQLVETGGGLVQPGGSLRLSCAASGFDLNEYGISWVRQAPGKGPEWVSVIYADGRRTFYADSVKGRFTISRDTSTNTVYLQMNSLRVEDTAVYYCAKGNNAGTFISWGQGTLVTVSS,1.68 / 1.99 / 1.73 / 1.77 / 1.99 / 3.22,2.06,0/18

Extract of 3 entries:

VH,"replicates, log10 nM","mean, log10 nM",signal with controls
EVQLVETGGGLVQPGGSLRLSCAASGFDLNEYGISWVRQAPGKGPEWVSVIYADGQRTAYADSVKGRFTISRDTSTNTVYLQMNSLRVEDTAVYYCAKGKTAGTFDSWGQGTLVTVSS,-0.75 / -0.66 / 0.17 / -1.02 / -1.24 / -0.21,-0.62,0/18
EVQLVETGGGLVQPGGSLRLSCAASGFDLNEYGISWVRQAPGKGPEWVSVIYADGSRTVYSDSVKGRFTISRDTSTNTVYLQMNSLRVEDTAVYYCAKGNQAGTFDSWGQGTLVTVSS,0.01 / 0.04 / 0.19 / 0.62 / 0.96 / 0.18,0.33,0/18
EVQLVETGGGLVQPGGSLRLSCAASGFDLNEYGISWVRQAPGKGPEWVSVIYADGSRTFYADSVKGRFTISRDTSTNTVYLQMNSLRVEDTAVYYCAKGEAAGTFDQWGQGTLVTVSS,0.42 / 0.79 / 0.43 / 0.66 / 0.44 / 1.00,0.62,0/18

Background: pairings of all heavy chain designs with three empty control strains gave a value in 1% of cases (median 2.08, 5th percentile 0.84). Values in that range, when seen in few replicates, are hard to tell from nonspecific mating. For each scFv, signals with the empty controls are counted beside the result, with their mean in brackets. The authors averaged sequences with at least three values out of six and counted those with two or fewer as poor binders.

The measurements come from Li et al. 2023 (doi:10.1038/s41467-023-39022-2) through the FLAb antibody collection.